Cneo AK release = Cryptococcus neoformans cell lysis inducers, primary screen, AK release luminescence, single concentration | 0.2% of 360,000 active | lysis activity, % at 15 µM | C. neoformans lysis, adenylate kinase release luminescence, 4 h; normalised: neutral wells 0, clomiphene wells 100;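 active = mean lysis activity across replicates of at least 80%, whatever share of replicates individually reach that level; inactive = mean lysis activity below 80%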
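Signal: Adenylate kinase release luminescence | Assay system: Log-phase Cryptococcus neoformans yeast cells | Input: Cells at 5 × 10^6 per mL | Buffer or medium: Fresh YPD growth medium | Compound: Single dose | Schedule: Static 4 h at 37 °C with compound, 1 h detection | Controls: Clomiphene | Read-out: Luminescence rise reflecting yeast cell lysis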
Yeast UUG start-1 = alters start codon recognition fidelity in yeast | S. cerevisiae UUG-firefly luciferase reporter, luminescence/redox ratio | activity score, % at 18.7 µM | hit rate 0.13% among 350,000 | AID 602363;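 active means replicate mean at a twofold rise or more, about +100% in these data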;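 further: firefly luciferase made from a UUG start codon reports start codon fidelity; reporter light over untreated wells divided by growth signal over untreated wells; some hits fall short of that in this replicate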
PDI turbidity = inhibitors of human PDI, primary screen, biochemical, turbidity, single point, plate reader. Protein disulfide-isomerase (Homo sapiens), P07237. PDI insulin aggregation turbidity, A650, 90 min. inhibition, % at 10 µM. 0.052% of 350,000 active;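 active = mean inhibition across replicates of 30% or more, whatever share of single replicates reach that level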
ERp5 inh = inhibitors of ERp5-driven insulin aggregation, primary screen, biochemical, turbidity, absorbance 650 nm, single point; inhibition, % at 9.99 µM; 0.05% of 350,000 active; Protein disulfide-isomerase A6 (Homo sapiens), Q15084; 90 min;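 active = mean replicate inhibition above about 25%, with every replicate also reaching it, limit read from the data, passing the limit was not always enough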
Yeast UUG start-2 = enhancers of UUG start codon usage in yeast, dose response, S. cerevisiae, UUG firefly luciferase, cherry-pick, set 2; activation, % at 38 µM; AID 652061, 2013; shares compounds with Yeast UUG start-1; luminescence, 4 h; 100% means double the DMSO signal; 540 tested, under 10 active;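 active = signal increase whose fitted curve reaches an absolute level of 40 at a concentration under 10 µM; inactive = activity opposite to the expected increase, or the rest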
An asterisk follows results filed as active; i = inactive; x = no result. This is a sample that favours compounds with a hit; in the whole collection about 0.34% have one here.

By UniProt entry, the sequences of proteins in these tests, tags left out.
Protein disulfide-isomerase (Homo sapiens), P07237, UniProt P07237, whole entry, looked up: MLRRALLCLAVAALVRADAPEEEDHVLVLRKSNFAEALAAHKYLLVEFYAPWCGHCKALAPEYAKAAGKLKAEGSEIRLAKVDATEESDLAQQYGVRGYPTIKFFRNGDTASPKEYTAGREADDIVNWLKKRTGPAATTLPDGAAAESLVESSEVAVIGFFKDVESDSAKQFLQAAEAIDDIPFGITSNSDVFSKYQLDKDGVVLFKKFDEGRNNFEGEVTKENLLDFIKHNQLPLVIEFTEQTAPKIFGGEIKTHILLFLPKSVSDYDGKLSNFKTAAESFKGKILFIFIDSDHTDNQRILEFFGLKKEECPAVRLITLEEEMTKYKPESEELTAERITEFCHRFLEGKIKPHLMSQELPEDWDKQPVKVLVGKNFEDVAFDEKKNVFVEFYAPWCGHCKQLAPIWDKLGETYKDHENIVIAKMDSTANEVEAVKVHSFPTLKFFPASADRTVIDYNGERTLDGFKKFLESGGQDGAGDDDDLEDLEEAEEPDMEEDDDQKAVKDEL
Protein disulfide-isomerase A6 (Homo sapiens), Q15084, UniProt Q15084, whole entry, looked up: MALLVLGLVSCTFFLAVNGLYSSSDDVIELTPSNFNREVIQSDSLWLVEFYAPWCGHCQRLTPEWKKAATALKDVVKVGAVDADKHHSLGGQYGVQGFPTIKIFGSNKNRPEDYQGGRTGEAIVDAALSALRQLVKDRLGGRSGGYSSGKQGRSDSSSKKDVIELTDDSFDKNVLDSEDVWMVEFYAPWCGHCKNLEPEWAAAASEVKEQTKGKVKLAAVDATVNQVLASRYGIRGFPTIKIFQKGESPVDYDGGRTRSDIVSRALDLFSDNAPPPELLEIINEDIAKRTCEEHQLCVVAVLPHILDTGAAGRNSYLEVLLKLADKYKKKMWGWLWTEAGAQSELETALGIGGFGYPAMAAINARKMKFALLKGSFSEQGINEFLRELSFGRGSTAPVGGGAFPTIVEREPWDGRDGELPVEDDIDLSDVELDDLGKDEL

Results follow in this order: Cneo AK release, PDI turbidity, Yeast UUG start-1, Yeast UUG start-2, ERp5 inh
- COCCNc1nnc(SCC(=O)c2ccc3c(c2)OCO3)s1
  1.2, -7.8, 473.9*, 1.4, x
- CC(C)N(CC#CC(O)(c1ccccc1)c1ccccc1)C(C)C
  x, 3.3, x, -5.8, -0.9
- C[C@H](CO)N1C[C@H](C)[C@@H](CN(C)CC2CCOCC2)Oc2ncc(-c3cccc(F)c3)cc2C1=O
  x, x, 156.6*, i, -0.7
- COc1ccc(-c2cnc3c(c2)C(=O)N([C@@H](C)CO)C[C@H](C)[C@@H](CN(C)C(=O)NC2CCCC2)O3)cc1
  -4.2, x, 139.6*, i, -3.9
- COc1ccccc1-c1cnc2c(c1)C(=O)N([C@@H](C)CO)C[C@H](C)[C@@H](CN(C)C(=O)c1cccnc1)O2
  2.2, x, 171.5*, i, -3.4
- CCCNC(=O)N(C)C[C@@H]1Oc2ncc(-c3ccc(C(=O)N(C)C)cc3)cc2C(=O)N([C@@H](C)CO)C[C@H]1C
  16.3, x, 103.8*, i, 6.4
- C[C@H]1CN([C@@H](C)CO)C(=O)Cc2cc(N(C)C)ccc2O[C@@H]1CN(C)S(=O)(=O)c1ccccc1
  -4.1, x, x, x, -3.2
- C[C@@H]1CN([C@@H](C)CO)S(=O)(=O)c2ccc(C3=CCCC3)cc2O[C@@H]1CN(C)C(=O)CN(C)C
  0.6, x, -3.8, x, -1.1
- O=C(Nc1ccc(Cl)cc1)N[C@H]1CC[C@@H](CCNC(=O)c2ccccc2F)O[C@H]1CO
  4.6, x, 3.1, x, -1.1
- O=C(NCC[C@@H]1CC[C@H](NC(=O)c2cnccn2)[C@@H](CO)O1)Nc1ccc(F)cc1
  -0.9, x, 158.6*, i, -8.4
- O=C(NCC[C@H]1CC[C@H](NS(=O)(=O)c2cccc(F)c2)[C@H](CO)O1)c1cnccn1
  -0.9, x, 112.9*, i, -2.4
- O=C(Nc1ccc(Cl)cc1)N[C@H]1CC[C@H](CCNC(=O)c2ccccc2F)O[C@H]1CO
  -0.7, x, 91.3*, i, -2.1
- O=C(NCC[C@H]1CC[C@@H](NS(=O)(=O)c2cccc(F)c2)[C@@H](CO)O1)c1cnccn1
  -1.6, x, 90.2, x, 2.6
- C[C@H](CO)N1C[C@H](C)[C@@H](CN(C)CC2CC2)Oc2c(NC(=O)c3cnccn3)cccc2C1=O
  -2.8, x, -8.8, x, -1.0
- COc1cc(C(=O)N2CCCc3ccccc32)cc(OC)c1OC
  0.1, -2.3, -12.4, x, x
- COc1ccc(C(=O)N2CCCc3ccccc32)cc1OC
  2.3, -2.1, active, -7.3, 3.3
- N#C/C(=C\Nc1ccc2c(c1)OCCO2)C(=O)NCc1ccco1
  0.6, -1.8, 102.2*, -3.7, 2.0
- C/C(=N/NC(=O)CNC(=O)c1ccncc1)c1ccco1
  2.6, -4.1, 180.4*, 8.4, -2.4
- C/C(=N/NC(=O)CNC(=O)c1ccco1)c1ccco1
  -1.5, 8.7, -30.1, x, -1.0
- Cc1nc(N2CCN(S(=O)(=O)c3ccccc3C#N)CC2)c2c(-c3ccccc3)csc2n1
  -3.3, -0.4, 141.0*, -1.6, 1.0
- C[C@H](CO)N1C[C@H](C)[C@H](CN(C)S(=O)(=O)c2ccccc2)OCCCC[C@H](C)Oc2ccc(NS(=O)(=O)c3cn(C)cn3)cc2C1=O
  -0.5, x, -7.6, x, 0.5
- COCC(=O)N1[C@H](C#N)[C@H](c2ccccc2C2=CCCCC2)[C@@H]1CO
  x, x, x, x, 9.8
- O=C(C1CCC1)N1C[C@@H]2[C@H](c3ccccc31)[C@H](CO)N2C(=O)Cc1ccccn1
  -3.6, x, 111.4*, i, -4.1
- O=C(C1CCC1)N1C[C@H]2[C@@H](c3ccccc31)[C@H](CO)N2C(=O)Cc1ccccn1
  0.8, x, 129.8*, i, -2.5
- COc1ccccc1CN1[C@@H]2CN(C(=O)C3CCC3)c3ccccc3[C@@H]2[C@@H]1CO
  -1.9, x, 128.2*, i, x
- O=C(C1CCCC1)N1C[C@H]2[C@@H](c3ccccc31)[C@H](CO)N2C(=O)Cc1ccccn1
  -3.6, x, -7.7, x, -0.3
- C[C@@H]1CN([C@H](C)CO)C(=O)Cc2cc(NC(=O)C3CC3)ccc2O[C@@H]1CN(C)S(=O)(=O)c1ccccc1
  -2.8, x, 11.8, x, 5.6
- Cc1ccccc1-c1ccc2c(c1)O[C@H](CN(C)Cc1ccncc1)[C@H](C)CN([C@@H](C)CO)S2(=O)=O
  -1.8, x, -12.5, x, 3.0
- CCCC(=O)Nc1ccc2c(c1)C(=O)N(C)[C@H]1CC[C@H](CC(=O)NCCc3ccncc3)O[C@@H]1CO2
  0.5, x, -8.2, x, 0.3
- CC(C)CC#Cc1cnc2c(c1)C(=O)N([C@H](C)CO)C[C@H](C)[C@@H](CN(C)C(=O)CC1CC1)O2
  -0.8, x, 146.6*, i, 8.3

In a second layout: entries from further up
SMILES	Cneo AK release	PDI turbidity	Yeast UUG start-1	Yeast UUG start-2	ERp5 inh
O=C(C1CCC1)N1C[C@@H]2[C@H](c3ccccc31)[C@H](CO)N2C(=O)Cc1ccccn1	-3.6	x	111.4*	i	-4.1
CCCNC(=O)N(C)C[C@@H]1Oc2ncc(-c3ccc(C(=O)N(C)C)cc3)cc2C(=O)N([C@@H](C)CO)C[C@H]1C	16.3	x	103.8*	i	6.4
C[C@@H]1CN([C@H](C)CO)C(=O)Cc2cc(NC(=O)C3CC3)ccc2O[C@@H]1CN(C)S(=O)(=O)c1ccccc1	-2.8	x	11.8	x	5.6
C[C@H](CO)N1C[C@H](C)[C@@H](CN(C)CC2CCOCC2)Oc2ncc(-c3cccc(F)c3)cc2C1=O	x	x	156.6*	i	-0.7
O=C(NCC[C@H]1CC[C@@H](NS(=O)(=O)c2cccc(F)c2)[C@@H](CO)O1)c1cnccn1	-1.6	x	90.2	x	2.6

Following part
Results follow in this order: Cneo AK release, PDI turbidity, Yeast UUG start-1, Yeast UUG start-2, ERp5 inh
- CCCC#Cc1cnc2c(c1)C(=O)N([C@H](C)CO)C[C@H](C)[C@@H](CN(C)C(=O)CCN1CCCCC1)O2
  2.0, 0.8, 166.2*, 4.0, 0.0
- O=C(Cc1ccccn1)N[C@H]1CC[C@@H](CCNS(=O)(=O)c2cccc(F)c2)O[C@@H]1CO
  52.3, x, 243.5*, i, -0.7
- O=S(=O)(N[C@@H]1CC[C@H](CCn2cc(-c3cccnc3)nn2)O[C@@H]1CO)c1ccc(Cl)cc1
  -1.2, x, 102.0*, i, -0.2
- COCc1cn(CC[C@H]2CC[C@@H](NC(=O)Nc3c(C)noc3C)[C@H](CO)O2)nn1
  -2.3, x, -4.0, x, 0.7
- COc1cccc(-c2cn(CC[C@@H]3CC[C@H](NC(=O)CC4CC4)[C@@H](CO)O3)nn2)c1
  0.6, x, 155.0*, i, 5.6
- COCc1cn(CC[C@H]2CC[C@H](NC(=O)Nc3c(C)noc3C)[C@H](CO)O2)nn1
  41.0, x, 193.8*, i, 2.1
- COc1cccc(-c2cn(CC[C@H]3CC[C@H](NC(=O)CC4CC4)[C@H](CO)O3)nn2)c1
  -0.3, x, -2.0, x, 2.9
- O=C(Cc1ccccn1)N[C@H]1CC[C@@H](CCNS(=O)(=O)c2cccc(F)c2)O[C@H]1CO
  3.3, x, 3.1, x, 2.7
- C[C@@H]1CN([C@@H](C)CO)C(=O)c2cccc(NC(=O)Nc3ccc4c(c3)OCO4)c2O[C@@H]1CN(C)Cc1ccc(C(F)(F)F)cc1
  39.8, x, 8.0, x, 0.7
- O=C(Cc1ccccn1)NCC[C@H]1CC[C@@H](NS(=O)(=O)c2ccc(Cl)cc2)[C@@H](CO)O1
  12.8, x, -8.0, x, 0.5
- O=C(Cc1ccccn1)NCC[C@@H]1CC[C@H](NS(=O)(=O)c2ccc(Cl)cc2)[C@H](CO)O1
  4.5, x, 103.5*, i, -0.6
- CN(C)C(=O)c1cccc(-c2ccc3c(c2)[C@H]2[C@H](CCN2C(=O)Nc2cccc(F)c2)[C@@H](CO)N3C)c1
  15.8, x, 6.1, x, x
- C[C@H]1CN([C@@H](C)CO)C(=O)Cc2cc(NC(=O)C3CC3)ccc2O[C@H]1CN(C)S(=O)(=O)c1ccccc1
  -10.8, x, 14.3, x, 5.0
- Cn1nc(CC(=O)Nc2ccc(N3CCN(C(=O)OC(C)(C)C)CC3)cc2)c2ccccc2c1=O
  -2.5, -16.6, 736.2*, 3.6, x

Screening results as filed in PubChem BioAssay.
